Where two headings read alike, the source gives them in different places.
Key:
[1] = system: naive Sprague Dawley rat hearts
heart failure rat model = type: in vivo
Procedure: Male Lewis rats (Charles River, USA) at 2-3 months of age were used for the study. […] APJ agonists were administered dose dependently acutely for a period of 30 min.

Sequences of proteins named here, by UniProt entry; tags and fusion partners are left off. A change or cut given only in a name is not applied to a line headed by its entry.
UniProt P35414: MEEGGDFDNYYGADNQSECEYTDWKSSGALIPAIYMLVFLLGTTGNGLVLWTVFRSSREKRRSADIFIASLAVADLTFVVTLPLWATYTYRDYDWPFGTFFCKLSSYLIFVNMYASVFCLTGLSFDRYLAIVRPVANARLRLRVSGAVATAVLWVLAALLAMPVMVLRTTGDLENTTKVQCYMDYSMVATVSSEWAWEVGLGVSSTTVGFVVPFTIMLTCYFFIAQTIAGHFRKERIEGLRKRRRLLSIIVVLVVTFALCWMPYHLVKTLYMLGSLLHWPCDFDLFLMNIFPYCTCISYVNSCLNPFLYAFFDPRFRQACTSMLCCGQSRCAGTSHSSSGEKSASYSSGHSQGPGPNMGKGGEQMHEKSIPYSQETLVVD

[2] = target: human APJ receptor expressed in the CHO cell line (Homo sapiens (Human), UniProt P35414); details: different concentrations of AngII with fixed concentration of pyr apelin-13; human APJ receptor expressed alone in CHO cells
Procedure: (§1) The function of the inositol phosphate accumulation (IP1) was measured by Time-resolved fluorescence resonance energy (TR-FRET) at 620 nm and 665 nm respectively.

[3] = target: human APJ-AT1R (angiotensin Type 1) double stable CHO cell line (Homo sapiens (Human), UniProt P30556+P35414); details: different concentrations of AngII with fixed concentration of pyr apelin-13; human APJ-AT1R double stable CHO cells
Procedure: as §1

APJ [4] = target: T1, APJ (Homo sapiens (Human), UniProt P35414); test: [35S]GTPγS binding assay on membranes from CHO cells stably expressing human APJ receptor; type: biochemical; details: Activity hAPJ SPA EC50 IP (μM)
APJ [5] = target: T1, APJ; details: 2003 study, Medhurst et al.; cited from earlier work
APJ [6] = target: T1, APJ; details: fold higher than apelin-36; cited from earlier work

Compound: COc1cccc(OC)c1-n1c(NS(=O)(=O)[C@@H](C)[C@H](OC)c2ncc(C)cn2)nnc1-c1cccnc1 [Example 173.0, (1R,2S)-N-(4-(2,6-dimethoxyphenyl)-5-(pyridin-3-yl)-4H-1,2,4-triazol-3-yl)-1-methoxy-1-(5-methylpyrimidin-2-yl)propane-2-sulfonamide]
- Isolated Heart Assay dP/dtmax(%) [1]: 39%
- Isolated Heart Assay dP/dtmin(%) [1]: 41.7%
- MI Rat Model dP/dtmax(%) (heart failure rat model; rat, in vivo): 14%

Compound: COc1cccc(OC)c1-n1c(NS(=O)(=O)[C@@H](C)[C@H](O)c2ncc(C)cn2)nnc1-c1cncc(C)c1 [Example 371.0, (1R,2S)-N-(4-(2,6-dimethoxyphenyl)-5-(5-methylpyridin-3-yl)-4H-1,2,4-triazol-3-yl)-1-hydroxy-1-(5-methylpyrimidin-2-yl)propane-2-sulfonamide]
- Isolated Heart Assay dP/dtmax(%) ([1]; ex vivo isolated perfused rat heart, contractility, percent change over vehicle): 19%
- Isolated Heart Assay dP/dtmin(%) ([1]; ex vivo isolated perfused rat heart, relaxation (lusitropic), percent change over vehicle): 25%
- MI Rat Model dP/dtmax(%) (heart failure rat model; in vivo heart failure (MI) rat, acute administration for 30 min): 15%

Compound: pyr apelin-13
- positive cooperativity (IP1 accumulation) [2]: no positive cooperativity observed
- positive cooperativity on AT1R (IP1 accumulation) [3]: induces the positive cooperativity on the AT1R

Compound: COc1cccc(OC)c1-n1c(NS(=O)(=O)[C@@H](C)[C@@H](O)c2ncc(C)cn2)nnc1-c1cncc(C)c1 (single isomer, unassigned) [Example 748.0]
- EC50 (APJ [4]): 0.0055 µM

Compound: COc1cccc(OC)c1-n1c(NS(=O)(=O)[C@@H](C)[C@H](C)c2ncc(C)cn2)nnc1-c1cncc(C(=O)O)c1 [Example 834.0, 5-(4-(2,6-dimethoxyphenyl)-5-((((1S,2R)-1-methyl-2-(5-methyl-2-pyrimidinyl)propyl)sulfonyl)amino)-4H-1,2,4-triazol-3-yl)-3-pyridinecarboxylic acid]
- EC50 (APJ [4]): 1.07 µM

Compound: apelin-13
- in vitro activity compared among apelin-36, apelin-17 and apelin-13 (APJ [5]): approximately equipotent
- in vitro affinity to the APJ receptor relative to apelin-36 (APJ [6]): ~3.5 fold

Compound: COc1cccc(OC)c1-n1c(NS(=O)(=O)[C@@H](C)[C@H](C)c2ncc(C)cn2)nnc1-c1cncc(C#N)c1 [Example 833.0, (2S,3R)-N-(5-(5-cyano-3-pyridinyl)-4-(2,6-dimethoxyphenyl)-4H-1,2,4-triazol-3-yl)-3-(5-methyl-2-pyrimidinyl)-2-butanesulfonamide]
- EC50 (APJ [4]): 0.07 µM
